# Assays:
# in vivo = details: rat, po
# rats [1] = assay: Neurotoxicity, gait and stance test in rats (TD50); details: oral administration, median neurological toxic dose
# rats [2] = assay: Maximal electroshock seizure test (MES) in rats; type: in vivo
# Source text: (§1) In the first model, the maximal electroshock seizure test (MES) was used to show efficacy for antiepileptic agents against partial and generalized seizure type epilepsy, the common epilepsy among therapy resistant epileptic patients. In the second model, the subcutaneous metrazol test (scMet) was used to measure seizure threshold and was used as a standard screening procedure to show efficacy for agents against seizure threshold and absence seizures. The models and the biological activity protocols followed in the examples presented herein have been described in the art.
# Briefly, Maximal Electroshock Seizure (MES) assay measures drug capacity to prevent seizure spread and is thus considered to model generalized tonic-clonic seizures. The assay was conducted using a supra-maximal current of 50 mA and 60 Hz for 0.2 seconds in mice, and 150 mA and 60 Hz for 0.2 seconds in rats. The current was delivered to the subjects by means of corneal electrodes to produce tonic hind limb extension. Animals not displaying tonic hind limb extension were considered affected positively by the tested compound.
# rats [3] = assay: Subcutaneous metrazol seizure threshold test (scMet) in rats; type: in vivo
# Source text: as §1
# Subcutaneous Metrazole Seizure Threshold Test (scMet) assay measures the ability of an agent to elevate seizure threshold and is considered to model generalized absence seizures. The assay was performed by subcutaneous injection of 85 mg/kg of the convulsant agent metrazole that induces clonic seizures in at least 97% of all animal models (rats and mice).
Compound,TD50 (in vivo),TD50 in Rats (rats [1]),Fraction of rats which responded to the treatment (rats [2]; dose 6 mg/kg),Fraction of rats which responded to the treatment (rats [2]; dose 12 mg/kg),Fraction of rats which responded to the treatment (rats [2]; dose 25 mg/kg),Fraction of rats which responded to the treatment (rats [2]; dose 50 mg/kg),Fraction of rats which responded to the treatment (rats [3]; dose 25 mg/kg),Fraction of rats which responded to the treatment (rats [3]; dose 40 mg/kg),Fraction of rats which responded to the treatment (rats [3]; dose 50 mg/kg),Fraction of rats which responded to the treatment (rats [3]; dose 100 mg/kg)
"CCCC(CCC)C(=O)NC(N)=O [Compound 6, 1-(2-propyl-pentanoyl)-urea]",232 mg/kg,,,,,,,,,
"CC(C)C(C(=O)NC(N)=O)C(C)C [Compound 2, 1-(2-isopropyl-3-methylbutanoyl)urea]",56 mg/kg,55.6 mg/kg,,,,,,,,
"CCCC(C(=O)NC(N)=O)C(C)C (racemic) [Compound 1, 1-(2-isopropylpentanoyl)urea]",,,0/8,3/8,6/8,8/8,1/8,2/8,5/8,8/8
